# This is one part of the list.
# Test system: A. baumannii ATCC 17978
# Experiment: relative growth (fraction of control); higher = less inhibition
# Conditions: 50 µM
row,SMILES,relative growth
1,O=C(O)/C=C/c1ccc(Cn2ccnc2)cc1,1.16
2,CO[C@@H]1CN(C)C(=O)c2cc(NS(C)(=O)=O)ccc2OC[C@H](C)N(C(=O)C2CCOCC2)C[C@H]1C,1.15
3,COCc1cn(C[C@H](Cc2ccccc2)NC(=O)N[C@H](CO)CCc2oc(C(=O)N3CCOCC3)c(C(=O)OC)c2C(=O)OC)nn1,0.908
4,CCOc1ccc(CO[C@@H]2O[C@H](CO)[C@@H](O)[C@H](O)[C@H]2NC(C)=O)cc1OC,1.06
5,C[C@H]1OC(n2cc(F)c(=O)[nH]c2=O)C(O)[C@@H]1O (stereo not given in full),1.15
6,CC(=O)n1cc([C@@H]2C=C(C(=O)NCc3ccccc3)O[C@H](OCc3ccc(CO)cc3)C2)c2ccccc21,0.993
7,CCN(CC)CCOCCOC(=O)C(CC)(CC)c1ccccc1.O=C(O)CC(O)(CC(=O)O)C(=O)O,0.993
8,CNC(=O)CN1C(=O)c2ccccc2S1(=O)=O,1.05
9,COC(=O)Nc1nc2ccc(S(=O)c3ccccc3)cc2[nH]1 (stereo not given),0.99
10,COC(=O)Cc1c(C)[nH]c2ncnn2c1=O,1.05
11,C[C@H](CCC(=O)[O-])[C@H]1CCC2C3C(=O)CC4CC(=O)CC[C@]4(C)C3CC(=O)[C@@]21C.[Na+] (stereo not given in full),1.12
12,CO[C@H]1CN(C)C(=O)c2cc(NS(=O)(=O)CC(F)(F)F)ccc2OC[C@@H](C)N(Cc2ccccn2)C[C@@H]1C,0.985
13,CO[C@H]1C(=O)[C@@]2(C)C([C@H](OC(=O)c3ccccc3)[C@]3(O)C[C@H](OC(=O)[C@H](O)[C@@H](NC(=O)OC(C)(C)C)c4ccccc4)C(C)=C1C3(C)C)[C@]1(OC(C)=O)CO[C@@H]1C[C@@H]2OC (stereo not given in full),1.45
14,CN(C)CC/C=C1/c2ccccc2COc2ccccc21.Cl,0.828
15,COCC(=O)N1C[C@H](C)[C@H](OC)CN(C)C(=O)c2ccc(NC(=O)c3ccc(F)cc3)cc2OC[C@@H]1C,0.949
16,C[C@@H]1CN([C@H](C)CO)S(=O)(=O)c2ccc(C#Cc3cccnc3)cc2O[C@H]1CN(C)C(=O)Nc1ccc2c(c1)OCO2,1.1
17,CC(C)=CCC/C(C)=C/CO,0.869
18,O=C(O)Cn1nnnc1-c1ccc(F)cc1,0.999
19,C[C@@H]1CN([C@@H](C)CO)S(=O)(=O)c2ccc(C#CC(C)(C)O)cc2O[C@H]1CN(C)C(=O)CN(C)C,1.02
20,C[C@]12CCC(=O)C=C1CCC1C2CC[C@@]2(C)C1CC[C@]2(O)C(=O)CO (stereo not given in full),0.969

row,SMILES,relative growth
1,CC(C)(CO)NC(=O)C(=O)NC1CC1,1.04
2,C=CCNC(=O)[C@H]1[C@@H]2C(=O)O[C@@H](c3ccccc3)[C@@H](c3ccccc3)N2[C@@H](c2ccc(O)cc2)[C@]12C(=O)Nc1ccc(C#Cc3ccc(OC)cc3)cc12,0.871
3,Nc1cccc(C2=NCCN2)c1,1.04
4,COCC(=O)N(C)C[C@@H]1Oc2cc(C#CCC3CCCC3)ccc2S(=O)(=O)N([C@@H](C)CO)C[C@H]1C,0.909
5,COc1ccc(C)cc1S(=O)(=O)NCCO,1.01
6,O=c1[nH]nc(Br)c(=O)[nH]1,1
7,CCCC#Cc1ccc2c(c1)O[C@@H](CN(C)C(=O)c1cnccn1)[C@H](C)CN([C@@H](C)CO)S2(=O)=O,0.984
8,C[C@@H]1CN([C@H](C)CO)S(=O)(=O)c2ccc(-c3ccc(C(=O)N(C)C)cc3)cc2O[C@@H]1CN(C)C(=O)Cc1ccccn1,1.07
9,CN1CCC(=C2c3ccccc3CC(=O)c3sccc32)CC1.O=C(O)/C=C/C(=O)O,0.943
10,Cn1c(N)c(C(=O)c2ccco2)c(=O)n(C)c1=O,1.01
11,COC(=O)c1c2oc(c1C(=O)OC)C(=O)N(C)Cc1cn(nn1)C[C@@H](Cc1ccccc1)NC(=O)N[C@H](COC(=O)NCCCCCC(=O)NO)CC2,0.834
12,CS(=O)(=O)Nc1ccc2c(c1)[C@H]1C[C@H](CC(=O)NCc3ccc(-c4ccccc4)cc3)O[C@H](CO)[C@H]1O2,1.05
13,COc1ccc(COC[C@]23NC(=S)N[C@H](c4ccccc4O2)[C@H]3CO[Si](C)(C)C(C)(C)C)cc1,1.14
14,CN/C(=C\[N+](=O)[O-])NCCSCc1csc(CN(C)C)n1,0.956
15,CC(=O)[C@H]1CCC2C3CC=C4C[C@@H](O)CC[C@]4(C)C3CC[C@@]21C (stereo not given in full),0.993
16,NCC[C@H]1CC[C@@H](NC(=O)C2CCCCC2)[C@H](CO)O1,1.06
17,CC(C)/C(O)=C1/C(=O)O[C@@H](c2ccoc2)[C@]2(C)C(O)[C@@H](O)[C@@]34OC5(C)OC67CC(C)(C(O)[C@]6(O)[C@@H](O)[C@]3(O5)C12)[C@H](CC(=O)O)[C@]74C (stereo not given in full),0.967
18,CC[C@H]1OC(=O)[C@H](C)[C@@H](O[C@H]2C[C@@](C)(OC)[C@@H](O)[C@H](C)O2)[C@H](C)[C@@H](O[C@@H]2O[C@H](C)C[C@H](N(C)C)[C@H]2O)[C@](C)(O)C[C@@H](C)[C@@H]2N[C@@H](COCCOC)O[C@H]([C@H]2C)[C@]1(C)O,0.587
19,O=C(O)[C@@H]1CCCNC1,0.972
20,C[C@H](O)C(=O)Nc1c(I)c(C(=O)NC(CO)CO)c(I)c(C(=O)NC(CO)CO)c1I,1.14
